US20030138864A1, “Method for identifying an enzyme to design anti-cancer compounds” (priority 2001, published 2003)

Assays:
Type in all cases: cell-based
[1] = tested on: HCT116/S5: HCT116 transfected with the human microsomal dipeptidase cDNA; assay: Growth inhibition (cytotoxicity, WST-8) of HCT116/S5 cells expressing a high level of microsomal dipeptidase; conditions: drug exposure time; 24 hr, then drug removed and cells cultured further
Description: (§1) The activation of the compounds is mediated by microsomal dipeptidase. The inhibitory activities of the compounds is determined against growth of the cells expressing a low level of microsomal dipeptidase, those expressing a high level of microsomal dipeptidase, and granulocyte progenitors that are expanded ex vivo. The human colon cancer cell line, HCT116 (American Type Culture Collection No. CCL-247), and granulocyte progenitors are used as the cells expressing only a low level of microsomal dipeptidase. A stable transfectant, HCT116/S5, into which the human microsomal dipeptidase cDNA (herafter called MDP) connected to the CMV promoter was transfected, is used as the cells expressing a high level of microsomal dipeptidase. […] The IC50 values are determined and compared among HCT116, HCT116/S5, and granulocyte porogenitors. […]
By using 96-multi well plates, approximately 2×10^3 cells per well of the HCT116 bearing pRC/CMV and HCT116S5 carrying pRC/CMV-MDP were cultured in 200 μl of McCoy5A medium supplemented with 10% FBS in the presence or absence of the indicated concentrations of the drugs at 37° C. under 5% CO2 in humidified air. […] Cell growth inhibition was calculated as IC50 values according to optical densities at 450 nm and at 655 nm. […] Cell growth inhibition was calculated as IC50 values according to optical densities at 450 nm and at 655 nm.

[2] = tested on: CFU-GM: human bematopoietic progenitor cells; assay: Growth inhibition (cytotoxicity, WST-1) of granulocyte progenitors expanded ex vivo (CFU-GM)
Description: as §1, with “dipeptidase.” for “dipeptidase. A stable transfectant, HCT116/S5, into which the human microsomal dipeptidase cDNA (herafter called MDP) connected to the CMV promoter was transfected, is used as the cells expressing a high level of microsomal dipeptidase.”
CD34-positive mononuclear cells derived from the human umbilical cord blood and bone marrow (Veritas Co, Tokyo, Japan, Catalog No.CB009F, ABM019F) were cultured on a confluent monolayer of MS5 (Itoh, K., et al. Reproducible establishment of hematopoietic supportive stromal cells from murine bone marrow. Exp. Hematol. 17, 145-153 (1989)). […] After washing with PBS containing 10% (v/v) FCS, the expression of CD antigens were detected by using FACSCalibur (Becton Dickinson, Franklin Lakes, N.J., USA) according to the FACSCalibur Traing mannual (FACStation ver1.1. Becton Dickinson, Franklin Lakes, N.J., USA.). […]

[3] = tested on: HCT116: human colon cancer cell line; assay: Growth inhibition (cytotoxicity, WST-8) of HCT116 cells expressing only a low level of microsomal dipeptidase; conditions: drug exposure time; 24 hr, then drug removed and cells cultured further
Description: The activation of the compounds is mediated by microsomal dipeptidase. The inhibitory activities of the compounds is determined against growth of the cells expressing a low level of microsomal dipeptidase, those expressing a high level of microsomal dipeptidase, and granulocyte progenitors that are expanded ex vivo. […] A stable transfectant, HCT116/S5, into which the human microsomal dipeptidase cDNA (herafter called MDP) connected to the CMV promoter was transfected, is used as the cells expressing a high level of microsomal dipeptidase. […] HCT116, HCT116/S5, and granulocyte porogenitors are cultured in the absence and presence of the drugs. […] The IC50 values are determined and compared among HCT116, HCT116/S5, and granulocyte porogenitors.
Transfection of the DNA was carried out by using TransIT-LT2 (PanVera, Madison, USA, Calatog No. MIR2320) according to the manufacturer's instruction. […] The cells that grew in the presence of 1 mg/ml G418 were collected and cultivated in MaCoy5A medium.
By using 96-multi well plates, approximately 2×10^3 cells per well of the HCT116 bearing pRC/CMV and HCT116S5 carrying pRC/CMV-MDP were cultured in 200 μl of McCoy5A medium supplemented with 10% FBS in the presence or absence of the indicated concentrations of the drugs at 37° C. under 5% CO2 in humidified air. […]

| Compound | IC50 [1] [nM] | IC50 [2] [nM] | IC50 [3] [nM] | IC50 ([2]; drug exposure time, 24 hr, then cultured for 6 days without drugs, read-out: Cytotoxicity (IC50 in nM) CFU-GM) [nM] |
| --- | --- | --- | --- | --- |
| 13α-((2R,3S)-2-{(5S)-[5-((2S)-2-amino-propinoylamino)-5-hydroxycarbonyl]pentanoylox}-3-benzoylamino-3-phenylpropionyloxy)-2α-benzyloxy-4α,10β-diacetoxy-1β,7β-dihydroxy-5β,20-epoxy-tax-11-en-9-one formic acid salt [Example 4] | 5.1 | 54 | 51 | – |
| CCCCCN1C=Nc2cccc3nc4c(c1c23)Cn1c-4cc2c(c1=O)COC(=O)[C@@]2(CC)OC(=O)CC[C@@H](NC(=O)[C@@H](N)CC(C)C)C(=O)O [Example 49-4, (9S)-9-ethyl-9-[(L)-leucyl-(D)-γ-glutamyloxy]-1-pentyl-1H,12H-pyrano[3″,4″:6′,7′]-indolizino[1′,2′:6,5]pyrido[4,3,2-de]quinazoline-10,13(9H,15H)-dione hydrochloride] | – | – | – | 54 |

Counter-ions that a name gives are not always drawn. Like-named read-outs stand apart in the source and are kept apart here.
